This note sets out measurements from US12065416B2, “cGAS antagonist compounds” (IMMUNESENSOR THERAPEUTICS, INC., priority 2016, dated 2024).

Protein sequences, listed by entry. Tags and fused reporters are not part of them. Residues count along the entry.
UniProt Q8N884, 147-522 limits assumed: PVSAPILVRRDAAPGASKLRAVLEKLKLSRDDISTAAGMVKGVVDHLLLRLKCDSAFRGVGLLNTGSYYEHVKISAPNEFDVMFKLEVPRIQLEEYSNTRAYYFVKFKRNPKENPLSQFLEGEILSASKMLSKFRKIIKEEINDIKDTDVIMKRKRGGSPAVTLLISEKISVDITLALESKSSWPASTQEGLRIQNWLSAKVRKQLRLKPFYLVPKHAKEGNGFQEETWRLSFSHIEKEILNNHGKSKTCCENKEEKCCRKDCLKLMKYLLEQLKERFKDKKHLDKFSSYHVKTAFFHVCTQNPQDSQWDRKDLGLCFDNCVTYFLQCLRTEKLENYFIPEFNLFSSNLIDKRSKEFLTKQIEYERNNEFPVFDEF

The target of the experiment is recombinant cGAS (aa147-522) (Homo sapiens, UniProt Q8N884). The experiment in a line: In vitro assay for inhibition of cGAS activity (ATP consumption, Kinase Glo). The settings on record: read-out: Activity (Inhibition of cGAS enzyme activity in vitro, IC50), 37° C. 20 minutes. The procedure:
cDNA encoding full-length or amino acids 147-520 of human cGAS is inserted into a modified pET28a vector containing an in-frame His6-SUMO tag. The E. coli strain BL21/pLys harboring the plasmid is induced with 0.5 mM IPTG at 18° C. overnight. His6-SUMO tag was removed by a SUMO proease following purification of the HiS-SUMO-cGAS as described previously (Sun et al, 2013, Science 339, 786).
A40 μL mixture containing 1.5 ng/μL of recombinant cGAS (aa147-522) and serial dilutions of a test compound or DMSO was added to a 96-well plate and incubated at 37° C. for 20 minutes. At the end of reaction, 20 μL of Kinase Glo (Promega) was added and chemiluminescence measured with a luminometer. Inhibitory effect of a compound is evaluated by plotting percentage of ATP consumption against logarithm of compound concentrations. IC50 value was calculated using Graphpad (Sigma).
Background: Kinase-Glo measures the ATP left after a reaction by luminescence.

For orientation: pIC50 means the IC50 on a negative log10 scale, so that one unit is a factor of ten.

Structures are written as SMILES. pIC50: −log10 of the molar value.

For the molecule `COc1cc(/C=C2\SC(=O)N(C)C2=S)c(Br)cc1O`, the pIC50 was above 6.30.
